miR-21 FLuc: miR-21 reporter, rising signal. HeLa miR-21 FLuc reporter, luciferase, 48 h. Potency, µM (highest dose often 38.3 µM), for the others: at the highest dose reporter change, positive = more light. 340,000 tested, under 10 active. AID 2288; active = well fitted rising curve with a large enough effect; inconclusive = small, poorly fitted or top-dose-only effect; inactive = no such curve, though single readings can be large or run the other way;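 further: % of control where 0% means no effect; miR-21 action dims this reporter so a rising signal means less miR-21 action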
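Luminescence from a firefly luciferase reporter carrying a miR-21 binding site downstream, stably expressed under a CMV promoter in HeLa cells that make miR-21 endogenously, reports miRNA modulation after 48 h compound exposure up to approximately 40uM final.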
G9a block: G9a (human) methyltransferase inhibition | Q96KQ7 | G9a H3K9 monomethylation, AlphaScreen, 2 h | Potency, µM (highest dose often 102 µM), inactives show at the top dose activity, negative = inhibition, actives largely listed as inhibitors | 350,000 compounds, 8.8% hits | AID 504332; further: potency means the concentration at half of the fitted maximal effect; on the % scale 0 is the no-effect control and ±100 the full control effect; nearly all actives have a fitted effect of over 75% in size
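Chemiluminescent proximity detection of H3K9 monomethylation, read after 10 min bead incubation in the dark. Reaction: 20 nM G9a, 500 nM biotin-H3K9 peptide, 20 uM SAM cofactor, 2 h, room temperature, following 15 min enzyme-compound preincubation.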
JMJD2E inh: inhibitors of human JMJD2E histone demethylase. B2RXH2. JMJD2E catalytic domain, FDH-coupled NADH fluorescence (FDH is formaldehyde dehydrogenase). Potency, µM (titrated, usually from 57.1 µM), for the others: at the highest dose activity change, negative = inhibition, usual class: inhibitors. 230,000 compounds, 1.6% hits; active means well fitted inhibition curve with a large enough effect, not every such curve was filed as active; inconclusive means small, poorly fitted or top-dose-only effect, or another doubt; inactive means no such curve, though single readings can be large or run the other way;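 further: potency means the concentration at half of the fitted maximal effect; 0% = wells with enzyme and -100% = buffer wells without enzyme; nearly all actives have a fitted effect of over 50% in size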
Sfp PPTase inh: qHTS Assay for Inhibitors of Bacillus subtilis Sfp phosphopantetheinyl transferase (PPTase); Biochemical Sfp PPTase activity, qHTS; Potency, µM, for the others: max response, negative = inhibition, usual class: inhibitors; actives 3.5% (n = 310,000); active means well fitted inhibition curve with a large enough effect; inconclusive means small, poorly fitted or top-dose-only effect, or another doubt; inactive means no such curve, though single readings can be large or run the other way;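 further: the enzyme is Sfp with the accession as filed and its product quenches rhodamine fluorescence; potency means the concentration at half of the fitted maximal effect; 0% = enzyme reaction without inhibitor and -100% = no enzyme wells; top concentration of the series not given in the record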
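Step 1, compound plus 15 nM Sfp-PPTase, 15 min, room temperature. Step 2, add rhodamine-CoA (5 uM) and BHQ-2-YbbR (12.5 uM). Step 3, read 525/598 nm fluorescence at 0 and 30 min.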
ALDH1A1 inh: ALDH1A1 (human) enzyme inhibition; Potency, µM (series often up to 75.3 µM), inactives show at the top dose activity, negative = inhibition, most hits filed as inhibitors; P00352; 220,000 compounds, 7.3% hits; Purified ALDH1A1, NADH fluorescence, propionaldehyde substrate; AID 1030; active means well fitted inhibition curve with a large enough effect, not every such curve was filed as active; inconclusive means small, poorly fitted or top-dose-only effect, or another doubt; inactive means no such curve, though single readings can be large or run the other way;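 further: potency means the concentration at half of the fitted maximal effect; plate controls were no enzyme wells and a reference inhibitor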
Lamin A splicing: LMNA splicing modulation; HeLa LMNA splicing GFP/RFP minigene ratio, 48 h; Potency, µM (highest dose often 46.1 µM), inactives show top-dose ratio change, negative = inhibition, most hits filed as inhibitors; 200,000 compounds, 0.01% hits; AID 1487; active means well fitted inhibition curve with a large enough effect in the signal ratio, with a control signal flat, not every such curve was filed as active; inconclusive means small, poorly fitted or top-dose-only effect, or effect the other way, or a change in a side signal; the % refers to the signal ratio; further: potency means the concentration at half of the fitted maximal effect; on the % scale 0 is the no-effect control and ±100 the full control effect
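S3 HeLa cells stably expressing lamin A-EGFP splicing minigene plus DsRed2, 600 cells/well, 48 h compound exposure at 37C. Laser-scanning cytometry; analysed as GFP (500-530 nm)/RFP (575-640 nm) total intensity ratio; 0.5% DMSO vehicle.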
* = called active by the depositor; [ ] = another dose, or the depositor's remark. The list is not random: actives were taken first. Their share in the collection is about 13%. Unless noted, the call rests on the fitted dose curve; in most records, active means well fitted curve in the direction sought with a large enough effect; inconclusive means small, poorly fitted or top-dose-only effect, or another doubt; inactive means no such curve, though single readings can be large; an effect the other way counts as inactive or inconclusive.

What do the screens show for `Cc1ccn2c(=O)cc(COc3ccc(NC(=O)COc4ccccc4)cc3)nc2c1`?
miR-21 FLuc: -1%; G9a block: 1%[59 µM]; Lamin A splicing: -1%[46 µM]

How did CCc1nc2oc3cc(OC)ccc3c(=O)c2c(=O)n1Cc1ccco1 do in these assays?
miR-21 FLuc: 0%; G9a block: 32µM*; JMJD2E inh: -4%; Sfp PPTase inh: 35µM*; ALDH1A1 inh: inconclusive; Lamin A splicing: 10%

What do the screens show for `Cc1ccc(CNc2cccnc2)cc1`?
miR-21 FLuc: -12%; G9a block: 6%; Sfp PPTase inh: 13%

What do the screens show for `O=C(NCc1cccnc1)Nc1ccc2c(c1)OCO2`?
miR-21 FLuc: -40%; G9a block: inconclusive; JMJD2E inh: 3%; Sfp PPTase inh: 14%; ALDH1A1 inh: 2%

How did Cc1ccc(NCc2cccnc2)cc1 do in these assays?
miR-21 FLuc: -1%; G9a block: 56µM*; JMJD2E inh: -5%; Sfp PPTase inh: 10%; ALDH1A1 inh: inconclusive; Lamin A splicing: 9%

Results for c1cncc(CNc2ccc3c(c2)OCO3)c1 ?
miR-21 FLuc: -16%; G9a block: inconclusive; JMJD2E inh: inconclusive; Sfp PPTase inh: inconclusive; ALDH1A1 inh: 20µM*; Lamin A splicing: 2%

How did Cc1ccc(CNc2ccc3c(c2)OCO3)c(C)c1 do in these assays?
miR-21 FLuc: -34%; G9a block: 13µM*; JMJD2E inh: inconclusive; Sfp PPTase inh: inconclusive; ALDH1A1 inh: inconclusive; Lamin A splicing: 6%

How did CC(=O)N(/C=C1\SC(=S)N(c2ccccc2)C1=O)c1ccccc1 do in these assays?
miR-21 FLuc: -17%; G9a block: inconclusive; JMJD2E inh: -1%; Sfp PPTase inh: -9%

What do the screens show for `CN(C)/C=C1\SC(=S)N(c2ccc(F)cc2)C1=O`?
miR-21 FLuc: -29%; G9a block: 63µM*; JMJD2E inh: 0%; Sfp PPTase inh: -15%

What do the screens show for `CN(C)/C=C1\SC(=S)N(c2ccc(Br)cc2)C1=O`?
miR-21 FLuc: -47%; G9a block: 45µM*; JMJD2E inh: 3%; Sfp PPTase inh: -10%

How did Cc1nn(Cc2ccc(Cl)c(Cl)c2)c(C)c1NC(=O)c1cc(-c2ccco2)on1 do in these assays?
miR-21 FLuc: 21%; G9a block: 16µM*; JMJD2E inh: -1%; Sfp PPTase inh: 45µM*; ALDH1A1 inh: inconclusive; Lamin A splicing: inconclusive

How did Cc1cc(NC(=O)c2cc(-c3ccco3)on2)nn1Cc1ccc(Cl)cc1 do in these assays?
miR-21 FLuc: 12%; JMJD2E inh: 490%; Sfp PPTase inh: 18µM*; ALDH1A1 inh: inconclusive; Lamin A splicing: 6%

Results for Cc1nn(Cc2ccc(Cl)cc2)c(C)c1NC(=O)c1cc(-c2ccco2)on1 ?
miR-21 FLuc: 21%; G9a block: inconclusive; JMJD2E inh: 5%; Sfp PPTase inh: -8%; ALDH1A1 inh: 3%; Lamin A splicing: 9%

Results for Cc1cc(C)nc(-n2nc(C)c(Sc3ccc(F)cc3)c2N)n1 ?
miR-21 FLuc: -3%; G9a block: 50µM*; JMJD2E inh: 9%; Sfp PPTase inh: -27%; ALDH1A1 inh: 0%; Lamin A splicing: inconclusive

How did Cc1nn(-c2ccccc2)c(N)c1Sc1cccc([N+](=O)[O-])c1 do in these assays?
miR-21 FLuc: 0%; G9a block: inconclusive; JMJD2E inh: -11%; Sfp PPTase inh: -8%; ALDH1A1 inh: inconclusive; Lamin A splicing: inconclusive

How did O=C(/N=C1/c2ccccc2CN1c1ccccc1)Nc1ccccc1 do in these assays?
miR-21 FLuc: -11%; G9a block: 12%[59 µM]; JMJD2E inh: 0%; Sfp PPTase inh: 1%; ALDH1A1 inh: -9%; Lamin A splicing: -10%

Results for O=C(N=C1c2ccccc2CN1c1ccc(F)c(F)c1)c1cccnc1 ?
miR-21 FLuc: -40%; G9a block: -30%; JMJD2E inh: -7%; Sfp PPTase inh: -9%; ALDH1A1 inh: 14µM*; Lamin A splicing: -3%[46 µM]

How did COc1ccc(N2Cc3ccccc3C2=NC(=O)c2ccc(C)cc2)cc1OC do in these assays?
miR-21 FLuc: -17%; G9a block: 45µM*; JMJD2E inh: -17%; Sfp PPTase inh: 4%; ALDH1A1 inh: inconclusive

Results for O=C(N=C1c2ccccc2CN1c1ccccc1)c1cccc([N+](=O)[O-])c1 ?
miR-21 FLuc: -33%; G9a block: 50µM*; JMJD2E inh: -8%; Sfp PPTase inh: 2%; ALDH1A1 inh: inconclusive; Lamin A splicing: -3%

Results for O=C(N=C1c2ccccc2CN1c1cccc(Cl)c1)c1cccnc1 ?
miR-21 FLuc: -65%; G9a block: 50µM*; JMJD2E inh: -14%; Sfp PPTase inh: 2%; ALDH1A1 inh: 2%; Lamin A splicing: -5%

What do the screens show for `CC[C@]1(c2ncc[nH]2)Cc2ccccc2O1`?
JMJD2E inh: 13%; Sfp PPTase inh: 9%; ALDH1A1 inh: 1%

What do the screens show for `CCc1ccc(NC(=O)CC2C(=O)NCCN2C(=O)c2ccc(F)cc2)cc1` (stereo not given)?
miR-21 FLuc: -9%; G9a block: 3%[59 µM]; Sfp PPTase inh: 10%

Results for CNc1c(NC(=O)c2ccc3c(c2)OCO3)c(=O)oc2ccccc12 ?
miR-21 FLuc: -1%; G9a block: 40%[59 µM]; Sfp PPTase inh: 20%

What do the screens show for `O=C(Nc1ccc(C(=O)OCc2cc(=O)n3c4c(sc3n2)CCCC4)cc1)c1ccc(Cl)cc1`?
miR-21 FLuc: 0%; G9a block: -4%[12.7 µM]; Lamin A splicing: 16%[46 µM]

How did COc1cc(C(C)=O)ccc1OCC(=O)OCCCOC(=O)COc1ccc(C(C)=O)cc1OC do in these assays?
miR-21 FLuc: 0%; G9a block: 52%; Sfp PPTase inh: 3%

How did CCOC(=O)C1=C(C)N=c2s/c(=C\c3ccc(O)c([N+](=O)[O-])c3)c(=O)n2C1c1ccccc1OC (stereo not given) do in these assays?
miR-21 FLuc: -2%; G9a block: 14µM*; Sfp PPTase inh: -12%

Results for CCOC(=O)C1=C(C)N=c2s/c(=C/c3cccc([N+](=O)[O-])c3O)c(=O)n2C1c1ccc(OC)cc1OC (stereo not given) ?
miR-21 FLuc: 4%; G9a block: 7.1µM*; Sfp PPTase inh: 50µM*

Results for CC(=O)Nc1ccc2nc(NC(=O)C(Cl)(Cl)Cl)sc2c1 ?
miR-21 FLuc: -4%; G9a block: 50µM*; JMJD2E inh: -5%; Sfp PPTase inh: 13%; ALDH1A1 inh: 11%

What do the screens show for `Cc1nc2ccc(NC(=O)c3cc(Cl)ccn3)cc2s1`?
miR-21 FLuc: -63%; G9a block: 45µM*; Sfp PPTase inh: -16%

Taken from the entries so far, 3 compounds:
What do the screens show for `CC[C@]1(c2ncc[nH]2)Cc2ccccc2O1`?
JMJD2E inh: 13%; Sfp PPTase inh: 9%; ALDH1A1 inh: 1%

What do the screens show for `CCc1ccc(NC(=O)CC2C(=O)NCCN2C(=O)c2ccc(F)cc2)cc1` (stereo not given)?
miR-21 FLuc: -9%; G9a block: 3%[59 µM]; Sfp PPTase inh: 10%

Results for CNc1c(NC(=O)c2ccc3c(c2)OCO3)c(=O)oc2ccccc12 ?
miR-21 FLuc: -1%; G9a block: 40%[59 µM]; Sfp PPTase inh: 20%

High-throughput results from PubChem BioAssay.
